Yeast mating assay 1: variants of the scFv Ab-14

From the AlphaSeq antibody data of Engelhart et al. 2022 (doi:10.1038/s41597-022-01779-4), copy in the FLAb collection.

The target is the same throughout: PDVDLGDISGINAS, from the HR2 region of SARS-CoV-2 spike.

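The starting antibody came from a phage panning campaign against this peptide. The library (AAYL50) carries one to three amino acid substitutions per variant, with no insertions or deletions. In AlphaSeq, yeast of one mating type display the scFv and yeast of the other type display the target. Mating (16 h, 30 °C) was followed by selection of diploids and sequencing of their barcodes. Scores were corrected for input abundance and mapped to Kd with protein pairs of known affinity run in the same pool. Each pool was mated in three replicate cultures.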

Ab-14 is the parent antibody, in scFv form: VH, then a 15-residue (Gly4Ser)3 linker, then VL. The heavy chain is unchanged in all variants.
VH: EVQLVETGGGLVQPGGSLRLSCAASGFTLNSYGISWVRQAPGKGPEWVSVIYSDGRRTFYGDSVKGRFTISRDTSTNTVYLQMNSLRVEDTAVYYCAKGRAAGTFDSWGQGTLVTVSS
VL: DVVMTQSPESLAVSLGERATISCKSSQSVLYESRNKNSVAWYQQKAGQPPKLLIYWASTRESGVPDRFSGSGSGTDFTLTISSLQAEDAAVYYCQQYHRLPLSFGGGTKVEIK

The parent's light chain CDRs are KSSQSVLYESRNKNSVA, WASTRES, QQYHRLPLS; each variant's own CDRs replace them letter for letter. Scale: log10 of Kd in nM, estimated from mating counts; low values are strong binders. A pair that was not seen in that replicate is written "n.d."; this usually means weak binding, but a binder can also be missed. As a blank, each scFv also met three strains without target: over library AAYL50, 18% of these pairings were detected, typically at 4.19 and seldom below 2.99. Also given: how often the same scFv was detected with the empty control strains, with their mean in brackets.

| CDR-L1 | CDR-L2 | CDR-L3 | replicates, log10 nM | signal with controls |
|---|---|---|---|---|
| TSFQSVLYESRMKNSVA | WASTRES | QQYHRLPLS | 2.86 / 1.66 / n.d. | 0/9 |
| KSSQSVLYESRNKNWVA | WISTRES | QQYHRLPLC | n.d. / n.d. / 4.72 | 2/9 (4.00) |
| KSSQSTLYESRNKNSVA | WYSTHES | QQYHRLPLS | n.d. / n.d. / n.d. | 0/9 |
| KSSQSVLYESRNKNSVA | WASTRES | QLYLRLPLW | 0.90 / 1.04 / 0.91 | 2/9 (5.15) |
| KSSQSVLYESRWKNSVA | WASTRES | QVYHRLYLS | n.d. / n.d. / n.d. | 0/9 |
| KSSQSVLYESRNKNSVA | WASNRES | QQLHRLPLS | 1.52 / 1.09 / 1.19 | 0/9 |
| KSSQSVAYESRNKNEVA | WASTRES | QQFHRLPLS | 2.32 / 2.12 / 2.15 | 2/9 (4.29) |
| KSSQSQLYESRNRNSVS | WASTRES | QQYHRLPLS | 3.63 / 3.37 / n.d. | 0/9 |
| KSSQSVAYESRNKNSVA | WASTRES | VQYHRLPGS | 2.96 / 2.72 / 2.90 | 4/9 (4.94) |
| KSSQSVLYESRNKNSVA | WASTRES | QVYHRLPLP | 0.72 / 0.80 / 0.74 | 4/9 (4.76) |
| KSSQSVLYESRNKNSVA | WASTRED | QQYHRWQLS | 1.10 / 1.14 / 1.16 | 4/9 (4.51) |
| KSSQSDLYESRNKNSAA | WASTRES | QQYHRLPHS | 4.66 / n.d. / 5.10 | 2/9 (5.03) |
| KSSQSVLYEPRNKNSVA | WASTRES | MQYHRLPLS | 1.79 / 1.82 / 1.97 | 4/9 (4.47) |
| KSSQSVLYESRNKNSVA | WASTRES | HTYHRLPLD | 2.09 / 1.94 / 2.04 | 3/9 (4.47) |
| KSSQFVLYESRNKNSVA | WASTSES | QQYCRLPLS | n.d. / n.d. / 3.27 | 1/9 (3.51) |
| KSYQSVLYESRNKNSVA | WAWTRES | QQCHRLPLS | n.d. / n.d. / 4.39 | 0/9 |
| KSSQSVLYQSRNKNVVA | WASTRES | QQYHRAPLS | n.d. / 2.98 / n.d. | 1/9 (3.53) |
| KSSQSVLYRSRNKISVA | WASTRES | QQYHGLPLS | n.d. / n.d. / n.d. | 0/9 |
| KSSQSVLYESRNENSMA | WASTRES | QCYHRLPLS | n.d. / 2.41 / n.d. | 0/9 |
| KSSQSVLYESRNANSVA | WASTRVS | QQYVRLPLS | 1.50 / 1.53 / 1.80 | 2/9 (4.63) |
| KSSDSILYESRNKNSVA | WATTRES | QQYHRLPLS | 0.89 / 1.08 / 0.99 | 4/9 (5.16) |
| KNSQSVLYESRNKNSVA | WASTRVN | QQYHRLPLS | 0.24 / 0.56 / 0.39 | 1/9 (2.97) |
| KSSWSVLYEGRNKNSVA | WWSTRES | QQYHRLPLS | n.d. / n.d. / n.d. | 2/9 (3.28) |
| KSSQQVLYESRWKNSVA | WASTRES | QQYHRLPLW | n.d. / 2.44 / 3.94 | 1/9 (3.72) |
| KSDQSVLYESRNKNSVA | WASTRES | WQYHLLPLS | n.d. / 4.18 / n.d. | 1/9 (4.15) |
| KSSQFVLYESRPKNSVA | WWSTRES | QQYHRLPLS | 6.00 / 5.20 / 4.16 | 2/9 (3.86) |
| KSSQSVLYESENNCSVA | WASTRES | QQYHRLPLS | 1.39 / 1.41 / 1.50 | 2/9 (4.20) |
| KVSQSVLYESRNKNSVA | WASTRES | QQYHFKPLS | 4.30 / 3.84 / 3.98 | 5/9 (5.09) |
| TSSRSVLYESRNKNSVA | WASTRES | QQYHRLPLM | 1.43 / 1.60 / 1.80 | 0/9 |
| KSSQSVLYESRNKNKVA | WASTRNS | QFYHRLPLS | n.d. / 5.46 / 4.99 | 4/9 (4.48) |
| KNSQSVLYESRNKNSVA | WVSTRES | QQYHRLPFS | 2.82 / 2.18 / 2.71 | 3/9 (4.43) |
| KSSQSNLYESRPKNSVA | WVSTRES | QQYHRLPLS | 2.49 / 3.58 / 3.29 | 0/9 |
| KSSQSVLYEFRNKNSVA | CASTREE | QQYHRLPLS | n.d. / n.d. / n.d. | 0/9 |
| KSSQSVLYESRLKNSRA | WASTRES | QQYHRRPLS | n.d. / n.d. / n.d. | 3/9 (4.13) |
| KSSQSVLYESRNNNSVA | PASTRES | GQYHRLPLS | n.d. / n.d. / n.d. | 1/9 (5.36) |
| KSSQSVLYESRNWNSVA | WASTRES | QIYHRLCLS | n.d. / 3.20 / 4.55 | 3/9 (4.07) |
| KSSQSVLYESRNKNSTA | WASARES | QQYHFLPLS | n.d. / n.d. / n.d. | 2/9 (3.17) |
| KSSQSVLYEWRNKNSVA | WASTDES | QQYHKLPLS | n.d. / n.d. / n.d. | 2/9 (3.78) |
| KSSQSVLYESRNKRSVA | LASLRES | QQYHRLPLS | 1.37 / 1.70 / 1.73 | 2/9 (3.86) |
| KSSQSVLYESRNCNSVA | WASERES | RQYHRLPLS | 6.16 / n.d. / n.d. | 2/9 (4.03) |
| KSSQSVLYESRNKLSVA | WASTRES | QAYTRLPLS | 2.11 / 2.64 / 3.29 | 2/9 (3.83) |

6 of these entries, quoted again:

| CDR-L1 | CDR-L2 | CDR-L3 | replicates, log10 nM | signal with controls |
|---|---|---|---|---|
| KSSQSVLYESRNKNSVA | WASTRES | HTYHRLPLD | 2.09 / 1.94 / 2.04 | 3/9 (4.47) |
| KSSQSVLYESRNKNSVA | WASTRES | QLYLRLPLW | 0.90 / 1.04 / 0.91 | 2/9 (5.15) |
| KSSQSVLYEWRNKNSVA | WASTDES | QQYHKLPLS | n.d. / n.d. / n.d. | 2/9 (3.78) |
| KSDQSVLYESRNKNSVA | WASTRES | WQYHLLPLS | n.d. / 4.18 / n.d. | 1/9 (4.15) |
| KSSWSVLYEGRNKNSVA | WWSTRES | QQYHRLPLS | n.d. / n.d. / n.d. | 2/9 (3.28) |
| KSYQSVLYESRNKNSVA | WAWTRES | QQCHRLPLS | n.d. / n.d. / 4.39 | 0/9 |